This note sets out measurements from US20050064383A1, “Methods and apparatus for producing gender enriched sperm” (priority 2000, published 2005).

This series can be described thus: Buffer solubility by HPLC. The following applies: TES Buffer pH 6.98; maximum measurable 90 micromolar. Here is the method:
One microliter (μL) of the stock solution was then added to 110 μL of aqueous buffer solution placed in an HPLC (high performance liquid chromatography) vial and mixed by inverting a number of times. The samples were allowed to stand for 30 minutes and then centrifuged for 30 minutes. The centrifugation is required to deposit suspended material that could interfere with the analysis to the side of the vial. The solutions were then analyzed by HPLC by sampling the solution without touching the vial bottom or sides. Shown below are the measured quantities remaining in solution in the various buffers.

On to “[2-[(3,5-dimethyl-1H-pyrrol-2-yl-kN)methylene]-N(N-(N-(8-(p-[5-[5-(4-methyl-1-piperazinyl)-2-benzimidazolyl]-2-benzimidazolyl]phenoxy)octan-1-oyl)-3-aminopropyl)hexan-6-amide-2H-pyrrole-5-propanamidato-kN1]difluoroboron [Bisbenzimide-BODIPY conjugate]”, for which the “quantity remaining in solution (solubility)” value is 38 µM.
